Hits are enriched below; roughly 1.7% of the tested compounds scored in any of these assays.
Pin1 inhibitor: inhibitors of human Pin1; Q13526; Pin1 FP peptide displacement, HiFluor488, 10 min; Potency, µM (doses to about 115 µM), without a hit: at the top dose activity, negative = inhibition, most hits filed as inhibitors; 390,000 compounds, 0.009% hits; active means well fitted inhibition curve with a large enough effect in the polarisation, with a control signal flat, not every such curve was filed as active; inconclusive means small, poorly fitted or top-dose-only effect, or effect the other way, or a change in a side signal; inactive means no such curve, though single readings can be large or run the other way; the % refers to the polarisation; further: potency means the concentration at half of the fitted maximal effect; on the % scale 0 is the no-effect control and ±100 the full control effect
miR-21 reporter: miR-21 reporter, rising signal. HeLa miR-21 FLuc reporter, luciferase, 48 h. Potency, µM (highest dose often 38.3 µM), for the others: at the highest dose reporter change, positive = more light. 340,000 tested, under 10 active. AID 2288; active = well fitted rising curve with a large enough effect; inconclusive = small, poorly fitted or top-dose-only effect; inactive = no such curve, though single readings can be large or run the other way;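 further: % of control where 0% means no effect; miR-21 action dims this reporter so a rising signal means less miR-21 action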
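HeLa miR-21-FLuc reporter line, endogenous miR-21; 2000 cells/well in DMEM/10% FBS; compound titration up to ~40uM final, 48 h, 37 degree Celsius; luciferase detection reagent, 15 min lysis, CCD luminescence.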
GLP1R cytotox: cytotoxic in the GLP-1 receptor inverse agonist counter-screen | HEK293 cAMP-luciferase reporter cells, luminescence, 24 h | Potency, µM (highest dose often 38.3 µM), for inactives: at the highest dose activity change, negative = inhibition, most hits filed as inhibitors | 410,000 compounds, 0.13% hits;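 further: loss of luciferase light is scored as toxicity; potency means the concentration at half of the fitted maximal effect; on the % scale 0 is the no-effect control and ±100 the full control effect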
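1536-well qHTS counterscreen of the MLSMR; 200 cells/uL, 12 h pre-incubation, 23 nL cpd, 24 h at 37 deg C 5% CO2, luciferase detection reagent, 12 min RT, luminescence. Inhibition = undesired.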
PTHR1 ag: agonists of human PTHR1 parathyroid hormone receptor. Q03431. HEK293 GP2 PTHR1 cells, GloSensor cAMP luminescence, 1 h. Potency, µM (top dose mostly 115 µM), inactives show top-dose activation, most hits filed as activators. 410,000 compounds, 0.075% hits; further: potency means the concentration at half of the fitted maximal effect; nearly all actives have a fitted effect of over 55% in size
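HEK-293-derived GP2 cells expressing PTHR1 and a GloSensor cAMP reporter, 3,000/well, plated overnight, given luciferin plus IBMX (each 0.5 mM as added) for 1 h at 37 °C, then compound for 1 h at 37 °C. Luminescence was read after 15 min at room temperature.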
GLP-1R inv ag: GLP-1 receptor (human) inverse agonism; P43220; Potency, µM (highest dose often 38.3 µM), inactives show at the top dose activity change, negative = inhibition, usual class: inhibitors; HEK293 GLP-1R CRE-luciferase, luminescence, 24 h; GLP-1R form is constitutively active; 410,000 compounds, 1.6% hits; further: potency means the concentration at half of the fitted maximal effect; on the % scale 0 is the no-effect control and ±100 the full control effect; nearly all actives have a fitted effect of over 55% in size
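Cells are plated, allowed 12 hours at 37 deg C, then treated with compounds for 24 hr before luciferase detection reagent is added and luminescence is read after 12 min at room temperature. The HEK293 line carries constitutively active GLP-1R with a cAMP-responsive reporter.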
GLP1R ag: agonists of human GLP-1 receptor. P43220. HEK293 GLP-1R CRE-luciferase, luminescence, 4-6 h; cells express a hypersensitive GLP-1R form. Potency, µM (highest dose often 45.6 µM), for the others: at the highest dose activation, actives largely listed as activators. 380,000 compounds, 0.007% hits; further: potency means the concentration at half of the fitted maximal effect; % of control where 0% means no effect
An asterisk follows results filed as active; i = inactive; ? = inconclusive; nt = no result given; [ ] = remark or other dose. Unless noted, the call rests on the fitted dose curve; in most records, active means well fitted curve in the direction sought with a large enough effect; inconclusive means small, poorly fitted or top-dose-only effect, or another doubt; inactive means no such curve, though single readings can be large; an effect the other way counts as inactive or inconclusive.

SMILES	Pin1 inhibitor	miR-21 reporter	GLP1R cytotox	PTHR1 ag	GLP-1R inv ag	GLP1R ag
CC(C)CN(CC(C)C)C(=O)Nc1ccccc1F	2.1%	2.5%	29.8%	i	8.91µM*	11.4%
O=C(CC(=O)Nc1ccccc1F)Nc1ccccc1F	4.7%	-10.7%	-0.7%	-2.5%	13.7%	16.1%
Cc1ccc(C2CC(=O)N(Cc3ccccc3)c3c2c(C)nn3-c2nc(C)cc(C)n2)cc1 (stereo not given)	-11.6%	-0.8%	-0.5%	-16.1%	-2.8%	nt
CC(=O)N(c1ccc(Cl)cc1)C1SC(=O)N(c2ccccc2)C1=O (stereo not given)	-2.1%	nt	nt	nt	nt	nt
O=C(OCC#CCSc1nnc(-c2cccc(F)c2)o1)c1ccc(F)cc1	-5.4%	nt	nt	nt	nt	nt
Cn1ccnc1SCC(=O)c1ccc(Cl)cc1	-3.7%	-47.5%	-14.2%	-39.8%	21.3%	3.5%
Cn1c(CO)cnc1SCC(=O)c1ccc(Cl)cc1	-0.4%	-12.2%	-28.0%	-33.2%	7.08µM*	-5.2%
COc1cccc2cc(-c3nc(Nc4cccc(C)c4C)sc3C)c(=O)oc12	15.6%	14.9%	0.8%	-6.6%	10µM*	nt
CCc1sc(Nc2cccc(Cl)c2C)nc1-c1cc2cccc(OC)c2oc1=O	13.6%	3.4%	3.9%	i	0.4%	nt
Fc1ccc(NC(=S)Nc2cc(-c3ccccc3)[nH]n2)cc1Cl	0.0%	21.1%	12.6µM*	-24.9%	?	1.5%
O=C(/C=C/c1cnc2ccccc2n1)NC12CC3CC(CC(C3)C1)C2	13.7%	-53.6%	-19.5%	i	2.51µM*	-1.3%
COc1ccc(C2c3ccc(OCc4ccccc4)cc3Oc3ncn(CCN4CCOCC4)c(=N)c32)cc1OC (stereo not given)	-1.5%	nt	nt	nt	nt	nt

The last two entries of the part before come first, to join the parts.
SMILES	Pin1 inhibitor	miR-21 reporter	GLP1R cytotox	PTHR1 ag	GLP-1R inv ag	GLP1R ag
O=C(/C=C/c1cnc2ccccc2n1)NC12CC3CC(CC(C3)C1)C2	13.7%	-53.6%	-19.5%	i	2.51µM*	-1.3%
COc1ccc(C2c3ccc(OCc4ccccc4)cc3Oc3ncn(CCN4CCOCC4)c(=N)c32)cc1OC (stereo not given)	-1.5%	nt	nt	nt	nt	nt
COc1ccc(C(=O)NCc2nnc(SCC(=O)Nc3ccccc3)n2-c2ccccc2)cc1	0.2%	0.3%	-12.1%	i	-3.9%	nt
N=c1n(Cc2ccccc2)c2ccccc2n1CC(O)COc1ccc(Cl)cc1Cl (stereo not given)	17.9%	?	?	-40.5%	?	-4.9%
OC(COCC(F)(F)C(F)(F)C(F)(F)C(F)F)Cn1c2ccc(Cl)cc2c2cc(Cl)ccc21 (stereo not given)	6.3%	?	?	-43.4%	1.78µM*	-5.1%
COCCNC(=S)N(CCc1c(C)[nH]c2ccc(F)cc12)Cc1cccs1	0.9%	?	-24.6%	-94.8%	?	-0.8%
COCCNC(=S)N(CCc1c(C)[nH]c2ccc(Cl)cc12)Cc1cccs1	-0.3%	?	?	-22.0%	2.51µM*	9.4%
C=CCc1cccc(/C=N/NC(=O)CNc2cccc3ccccc23)c1O	-0.1%	29.2%	?	-6.9%	?	0.6%
Nc1ccc(C(=O)N/N=C/c2cn(Cc3cccc(F)c3)c3ccccc23)cc1	0.5%	-10.6%	3.7%	-29.2%	5.01µM*	7.7%
C=CCc1cccc(/C=N/NC(=O)CCC(=O)Nc2ccc(F)cc2)c1O	2.2%	20.9%	6.3%	-6.8%	?	2.9%
O=C(CNc1ccc2c(c1)OCO2)N/N=C\c1cn(Cc2ccccc2)c2ccccc12	8.9%	-3.1%	-24.1%	i	2.82µM*	-1.6%
C=CCc1cccc(/C=N/NC(=O)CCCNc2ccc(C)cc2)c1O	55.0%	?	?	i	10µM*	3.1%
C=CCc1cccc(/C=N/NC(=O)CNc2ccccc2)c1O	?	25.7%	?	-15.1%[57.5 µM]	3.55µM*	-11.3%
COc1cccc(S(=O)(=O)N2CCN(c3nc(-c4cccs4)nc4ccccc34)CC2)c1	8.6%	nt	nt	nt	nt	nt

Arranged by length of the SMILES (smallest number first): part of the list above.
SMILES	Pin1 inhibitor	miR-21 reporter	GLP1R cytotox	PTHR1 ag	GLP-1R inv ag	GLP1R ag
Cn1c(CO)cnc1SCC(=O)c1ccc(Cl)cc1	-0.4%	-12.2%	-28.0%	-33.2%	7.08µM*	-5.2%
C=CCc1cccc(/C=N/NC(=O)CNc2cccc3ccccc23)c1O	-0.1%	29.2%	?	-6.9%	?	0.6%
Nc1ccc(C(=O)N/N=C/c2cn(Cc3cccc(F)c3)c3ccccc23)cc1	0.5%	-10.6%	3.7%	-29.2%	5.01µM*	7.7%
OC(COCC(F)(F)C(F)(F)C(F)(F)C(F)F)Cn1c2ccc(Cl)cc2c2cc(Cl)ccc21 (stereo not given)	6.3%	?	?	-43.4%	1.78µM*	-5.1%

Later entries.
SMILES	Pin1 inhibitor	miR-21 reporter	GLP1R cytotox	PTHR1 ag	GLP-1R inv ag	GLP1R ag
Cc1cc(C)c(C(=O)NC2CC(C)(C)Cc3c2cnn3-c2ccccc2)o1 (stereo not given)	-0.3%	4.6%	-3.1%	i	10µM*	-1.4%
COc1ccc(-n2ncc3c2CC(C)(C)CC3NC(=O)c2oc(C)cc2C)cc1 (stereo not given)	?	-5.7%	-1.2%	-7.1%	-25.1%	-0.7%
Cc1nc(-c2ccccn2)nc(SCC(=O)c2ccc(F)cc2)c1Cl	-0.9%	24.6%	?	-26.5%	?	6.3%
COc1ccc(C(=O)CSc2nc(-c3ccccn3)nc(C)c2Cl)cc1	?	26.0%	11.2µM*	-40.0%	?	1.6%
CCc1ccc(-c2csc(NC(=O)C3CCCO3)c2C(=O)OC(C)C)cc1 (stereo not given)	?	3.5%	20.9%	?	1.26µM*	-1.6%
COC(=O)c1c(-c2ccc(F)cc2)csc1NC(=O)C1CCCO1 (stereo not given)	-0.9%	-59.2%	-9.0%	-40.4%	-24.4%	27.0%
COc1ccc(Cl)cc1NC(=O)CN1C(=O)COc2ccc(S(=O)(=O)NC3CCCC3)cc21	34.4%	-2.0%	2.1%	-3.1%	-20.8%	nt
Cc1nc(-c2ccc(C)c(N3CCN(C(=O)Nc4cccc(Cl)c4C)CC3)c2)no1	7.0%	13.6%	0.1%	-91.7%	4.47µM*	-3.7%
CCn1c(C(=O)NCc2ccccc2C)cc2oc3ccccc3c21	2.3%	20.0%	1.0%	i	5.01µM*	nt
O=[N+]([O-])c1ccccc1SNc1ccccc1	nt	nt	-5.1%	i	?	0.1%
O=[N+]([O-])c1ccc(SNc2ccccc2)c([N+](=O)[O-])c1	-8.0%	nt	?	-58.9%	11.2µM*	1.0%
CC[C@]12c3[nH]c4ccc(OC)cc4c3CCN1C(=O)C(CC(=O)NCc1cccc(C(F)(F)F)c1)C[C@@H]2C(=O)N1CCN(C(=O)c2ccco2)CC1 (stereo not given in full)	-0.7%	nt	-4.8%	i	-13.8%	-2.3%
CC[C@]12c3[nH]c4ccc(Cl)cc4c3CCN1C(=O)[C@@H](CC(=O)NCc1cccc(C(F)(F)F)c1)C[C@@H]2C(=O)N1CCN(C(=O)c2ccco2)CC1	12.4%	nt	?	-4.9%	10µM*	-1.1%
COC(=O)c1ccc(NC(=O)CC2C(=O)N(c3ccccc3)C(=O)N2Cc2cccs2)cc1 (stereo not given)	8.3%	-3.1%	5.1%	i	-13.1%	nt
CCN1C(=O)[C@H]2[C@@H](c3ccc(C(F)(F)F)cc3)N[C@]3(CCCN(Cc4ccc(C)cc4)C3=O)[C@H]2C1=O	nt	nt	2.1%	-1.8%	?	-5.4%
O=C1[C@H]2[C@@H](c3ccc(C(F)(F)F)cc3)N[C@]3(CCCN(Cc4ccc(C(F)(F)F)cc4)C3=O)[C@H]2C(=O)N1Cc1ccccc1	nt	nt	3.4%	-20.0%	4.47µM*	-3.6%

Screening results from PubChem.
